Structures are written as SMILES. Only a part is listed here, and it is no random draw. Active and inactive are the calls of the source. The call rests on the fitted dose curve; in most records, active means well fitted curve in the direction sought with a large enough effect; inconclusive means small, poorly fitted or top-dose-only effect; inactive means flat fitted curve, though single readings scatter.
On the % scale 0 is the no-effect control and ±100 the full control effect.

The subject of this experiment is DNA polymerase III holoenzyme (E. coli). Nature of the experiment: qHTS Assay for Inhibitors of DNA Polymerase III Holoenzyme System. The following applies: reconstituted DNA polymerase III holoenzyme replication, biochemical; at 57.1 µM (top of the series). As for the experimental part:
NIH Molecular Libraries Screening Centers Network [MLSCN]
NIH Chemical Genomics Center [NCGC]
Assay Provider: Charles McHenry, University of Colorado
E. coli DNA polymerase III holoenzyme complex was assayed for DNA production by fluorescent detection of the double-stranded DNA product with PicoGreen dye. The holoenzyme complex was reconstituted from the following purified protein components: DNA Polymerase III, beta subunit processivity factor, SSB single-stranded DNA binding protein, and Primase. Single-stranded, circular M13Gori was used as a substrate with dNTPs and NTPs also supplied to the substrate reagent. Compounds from the NCGC collection were incubated with the holoenzyme mixture for 15 min at room temperature to allow binding to occur, and then the reaction was started by the addition of substrate. […] Reaction progress was measured in a ViewLux CCD imager in fluorescence intensity mode by using 480 nm excitation and 540 nm emission filter set. […]
Three uL of holoenzyme mixture were dispensed to 1536-well Greiner black solid bottom plates. […] After room temperature incubation for 35 minutes, 1 uL of PicoGreen solution was added to each well and the plates were read 480 nm excitation and 540 nm emission using ViewLux (Perkin-Elmer) High-throughput CCD imager and fluorescence protocol settings. […]
With `O=[N+]([O-])C(Cl)(Cl)Cl`, the activity change, negative = inhibition was inactive: 4.1%.

Regarding `CN(CCCl)CCCl`, the activity change, negative = inhibition is inactive: -0.6%.

Values taken from PubChem BioAssay AID603 (National Center for Advancing Translational Sciences (NCATS), 2007).
